The structures appear in SMILES notation. This is a selection; strong and weak results do not stand in their true shares. Potency and affinity values are given separately. Some salts or complexes appear as unconnected parts, following the source record. Calls of active or inactive are those of the source. Cut-off read from the data, not from the text of the source: active = inhibition mostly above about 51% (no sharp cut-off); inconclusive = no clear call, values can overlap the other calls; inactive = mostly below about 53%.

Chains of the proteins cited; added tags and fusions are not shown.
UniProt Q00975, whole entry: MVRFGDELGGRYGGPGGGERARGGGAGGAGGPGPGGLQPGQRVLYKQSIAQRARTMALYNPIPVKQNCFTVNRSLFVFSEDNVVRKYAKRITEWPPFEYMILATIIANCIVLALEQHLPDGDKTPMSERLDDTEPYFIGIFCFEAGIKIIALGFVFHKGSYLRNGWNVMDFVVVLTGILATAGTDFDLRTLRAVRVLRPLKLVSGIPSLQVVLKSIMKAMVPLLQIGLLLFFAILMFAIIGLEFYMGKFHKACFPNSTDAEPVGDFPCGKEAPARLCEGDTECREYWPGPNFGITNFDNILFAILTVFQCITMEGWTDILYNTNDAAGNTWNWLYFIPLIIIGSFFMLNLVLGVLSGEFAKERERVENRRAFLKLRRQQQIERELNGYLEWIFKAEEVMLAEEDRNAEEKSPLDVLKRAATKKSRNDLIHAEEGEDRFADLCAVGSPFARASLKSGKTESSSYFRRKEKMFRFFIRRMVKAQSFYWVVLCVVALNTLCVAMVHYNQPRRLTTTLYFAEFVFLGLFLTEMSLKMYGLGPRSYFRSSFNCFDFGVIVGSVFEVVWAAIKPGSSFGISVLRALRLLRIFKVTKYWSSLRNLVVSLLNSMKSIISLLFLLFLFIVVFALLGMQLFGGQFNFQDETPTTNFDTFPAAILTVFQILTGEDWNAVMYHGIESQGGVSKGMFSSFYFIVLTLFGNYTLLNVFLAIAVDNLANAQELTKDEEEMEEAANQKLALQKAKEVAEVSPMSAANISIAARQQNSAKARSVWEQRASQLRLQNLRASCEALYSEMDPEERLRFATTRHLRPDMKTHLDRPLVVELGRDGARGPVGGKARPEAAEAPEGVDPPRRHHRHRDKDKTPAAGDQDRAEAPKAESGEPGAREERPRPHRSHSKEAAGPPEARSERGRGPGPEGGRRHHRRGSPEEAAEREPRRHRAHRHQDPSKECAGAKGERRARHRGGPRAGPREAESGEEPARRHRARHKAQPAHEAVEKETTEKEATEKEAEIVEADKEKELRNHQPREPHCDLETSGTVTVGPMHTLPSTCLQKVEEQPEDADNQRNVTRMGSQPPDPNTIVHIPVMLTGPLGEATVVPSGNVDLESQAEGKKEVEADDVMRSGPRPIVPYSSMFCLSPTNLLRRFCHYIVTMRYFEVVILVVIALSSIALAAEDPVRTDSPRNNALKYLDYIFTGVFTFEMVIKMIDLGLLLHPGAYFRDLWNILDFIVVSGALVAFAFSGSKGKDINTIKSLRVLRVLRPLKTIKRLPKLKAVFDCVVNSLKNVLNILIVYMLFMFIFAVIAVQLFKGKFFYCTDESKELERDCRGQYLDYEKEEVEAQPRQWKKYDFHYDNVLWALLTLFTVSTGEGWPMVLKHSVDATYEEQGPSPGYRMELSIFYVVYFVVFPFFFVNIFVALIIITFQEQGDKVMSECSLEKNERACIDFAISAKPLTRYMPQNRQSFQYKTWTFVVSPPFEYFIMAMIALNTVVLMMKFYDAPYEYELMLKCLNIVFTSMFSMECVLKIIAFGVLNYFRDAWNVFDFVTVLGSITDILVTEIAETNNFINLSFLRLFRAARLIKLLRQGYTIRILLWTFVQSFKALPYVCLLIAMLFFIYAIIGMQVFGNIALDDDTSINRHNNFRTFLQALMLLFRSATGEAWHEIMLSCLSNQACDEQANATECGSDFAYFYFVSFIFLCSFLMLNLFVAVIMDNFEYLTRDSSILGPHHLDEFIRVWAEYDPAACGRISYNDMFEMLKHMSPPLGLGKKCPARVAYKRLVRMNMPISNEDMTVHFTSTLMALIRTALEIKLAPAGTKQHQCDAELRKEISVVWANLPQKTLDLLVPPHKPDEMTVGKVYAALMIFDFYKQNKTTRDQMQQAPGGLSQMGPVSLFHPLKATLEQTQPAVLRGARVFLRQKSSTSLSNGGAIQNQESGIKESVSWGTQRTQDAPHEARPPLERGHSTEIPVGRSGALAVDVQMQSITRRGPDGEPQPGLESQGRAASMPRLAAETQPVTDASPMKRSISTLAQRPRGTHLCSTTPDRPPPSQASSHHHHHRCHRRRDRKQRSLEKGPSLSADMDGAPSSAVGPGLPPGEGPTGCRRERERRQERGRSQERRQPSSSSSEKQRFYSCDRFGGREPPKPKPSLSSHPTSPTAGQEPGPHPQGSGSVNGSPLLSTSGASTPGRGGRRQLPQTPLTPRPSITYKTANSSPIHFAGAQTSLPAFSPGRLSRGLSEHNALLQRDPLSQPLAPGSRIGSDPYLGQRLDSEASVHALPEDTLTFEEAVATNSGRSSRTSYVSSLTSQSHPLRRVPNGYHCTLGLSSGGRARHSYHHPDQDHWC

The target in this test is Voltage-dependent N-type calcium channel subunit alpha-1B (Homo sapiens) (UniProt Q00975). The test can be described thus: inhibitors of Mint1-CaV2.2 protein interaction, biochemical, HTRF (AID 2073). The settings on record: at 20 µM, stronger effect = higher value. For orientation: Time-resolved FRET reads energy transfer from a long-lived donor to a nearby acceptor.
Broadly, the inhibition is the change of the read-out against control, counted positive when it falls. As to `CCc1ccc(OP(C)(=O)O)cc1`, the inhibition was inactive: -0.4%.
Under `CP(=O)(Nc1ccccn1)Oc1ccccc1` (stereo not given) stands inactive: -4.1%; under `COc1ccccc1OP(C)(=O)Nc1ccc(C)cc1C` (stereo not given), inactive: -6%; under `O=[N+]([O-])c1cc([N+](=O)[O-])c(Nc2ccccn2)c([N+](=O)[O-])c1`, inactive: 5.9%.
To `Cc1c(NP(C)(=O)Oc2ccc(C(C)C)cc2)c(=O)n(-c2ccccc2)n1C` (stereo not given) belongs inactive: 12.5%.
Under `CN(C)CCOC(=O)C(O)(c1ccccc1)C1CCCC1` (stereo not given) stands inactive: 4.8%; under `COc1ccc(OP(C)(=O)Nc2ccccn2)cc1` (stereo not given), inactive: 2%; under `COc1ccccc1OP(C)(=O)Nc1ccc(Br)cc1` (stereo not given), inactive: -10.4%.
With `CP(=O)(OCCOc1ccccc1)OCCOc1ccccc1`, the inhibition is inactive: 4.1%.
Under `CP(=O)(Nc1ccc(Cl)cc1Cl)Oc1ccccc1` (stereo not given) stands inactive: -7.6%; under `Cc1nc2ccc3ccccc3c2o1.O=[N+]([O-])c1cc([N+](=O)[O-])c(O)c([N+](=O)[O-])c1`, inactive: -11.4%; under `COc1ccc(OP(C)(=O)Nc2ccccc2Br)cc1` (stereo not given), inactive: -3.6%.
To `COc1ccccc1OP(C)(=O)Nc1ccc(C)c(C)c1` (stereo not given) belongs inactive: -4%.
Under `Cc1cc(C)cc(OP(C)(=O)Nc2cccc(C(F)(F)F)c2)c1` (stereo not given) stands inactive: 11.9%.
Regarding `CP(=O)(OC12CC3CC(CC(C3)C1)C2)OC12CC3CC(CC(C3)C1)C2`, the inhibition was inactive: -10.9%.
Under `CCOC(=O)c1ccc(NP(C)(=O)Oc2ccc(Cl)cc2)cc1` (stereo not given) stands inactive: 2.1%; under `CN(C)C(=O)c1c([N+](=O)[O-])cc([N+](=O)[O-])cc1[N+](=O)[O-]`, inactive: -10.9%.
To `CP(=O)(Nc1ccc(Cl)cc1)Oc1ccc(F)cc1` (stereo not given) belongs inactive: -0.7%; to `CC(C)(C)c1ccc(OP(C)(=O)O)cc1`, inactive: 1.9%.
Under `COc1ccccc1OP(C)(=O)Nc1ccccc1Br` (stereo not given) stands inactive: -0.5%; under `CP(=O)(Oc1ccccc1)N1CCOC1=O` (stereo not given), inactive: 1%; under `CCc1ccc(OP(C)(=O)Nc2cccnc2)cc1` (stereo not given), inactive: -0.8%.
As to `COc1ccccc1OP(C)(=O)Nc1c(C)n(C)n(-c2ccccc2)c1=O` (stereo not given), the inhibition was inactive: -5.5%.
To `O=C(OCCCN1CCCC1)C(O)(c1ccccc1)C1CCCCC1` (stereo not given) belongs inactive: 6.3%; to `CCN(CC)CC(O)COC(=O)C(O)(c1ccccc1)C1CCCCC1` (stereo not given), inactive: -1.5%; to `COc1ccc(OP(C)(=O)Nc2ccc(Br)cc2)cc1` (stereo not given), inactive: -1.1%.
To `Cc1ccccc1NP(C)(=O)Nc1ccccc1C` belongs inactive: 1.7%; to `CP(=O)(Nc1ccc2c(c1)OCCO2)Oc1ccccc1` (stereo not given), inactive: 7.5%; to `CCOP(C)(=S)SCC(=O)NC(C)(CC)C(=O)O` (stereo not given), inactive: -1.8%.
To `CP(=O)(Nc1ccc(SC(F)(F)F)cc1)Oc1ccc(F)cc1` (stereo not given) belongs inactive: -10.4%; to `O=[N+]([O-])c1cc([N+](=O)[O-])c(NCC2CCS(=O)(=O)C2)c([N+](=O)[O-])c1` (stereo not given), inactive: 6.6%.
`Cc1cc(-c2cccc3ccccc23)c(C)cn1.O=[N+]([O-])c1cc([N+](=O)[O-])c(O)c([N+](=O)[O-])c1`: the inhibition was inactive: -0.6%.
Under `O=[N+]([O-])c1ccc(OP2(=O)COCCO2)cc1` (stereo not given) stands inactive: 0.1%; under `COc1ccc(NP(C)(=O)Oc2ccccc2OC)cc1` (stereo not given), inactive: -11.8%; under `CN(C)CCOC(=O)C(O)(c1ccccc1)C1CCCCC1` (stereo not given), inactive: 3.9%.
Under `COc1ccc(OP(C)(=O)Nc2cccc(Br)c2)cc1` (stereo not given) stands inactive: -2%; under `O=[N+]([O-])c1cc([N+](=O)[O-])c(OC2CCCCC2O)c([N+](=O)[O-])c1` (stereo not given), inactive: -4%; under `CCCCCOc1ccc(NP(C)(=O)Oc2ccc(Cl)cc2Cl)cc1` (stereo not given), inactive: 1.2%.
Turning to `CP(=O)(Nc1ccccc1)Oc1ccc(F)cc1` (stereo not given), the inhibition is inactive: 0.9%.
`CCN(CC)CCCOC(=O)C(O)(c1ccccc1)C1CCCCC1` (stereo not given): the inhibition was inactive: -2%.
Under `COc1ccc(OP(C)(=O)Nc2ccc(SC(F)(F)F)cc2)cc1` (stereo not given) stands inactive: -2.5%; under `CCOC(=O)c1ccc(NP(C)(=O)Oc2ccc(F)cc2)cc1` (stereo not given), inactive: 0.7%.
On to `COc1ccc2c(c1O)-c1c(O)c(OC)cc3c1[C@H](C2)[N+](C)(C)CC3.O=[N+]([O-])c1cc([N+](=O)[O-])c([O-])c([N+](=O)[O-])c1[O-]`, for which the inhibition was inactive: 8.8%.
Under `O=C(OCCN1CCN(CCOCc2ccccc2)CC1)C(O)(c1ccccc1)c1ccccc1` stands inactive: -10.6%; under `O=C(OC1CN2CCC1CC2)c1ccc([N+](=O)[O-])cc1` (stereo not given), inactive: -10.1%; under `CC(C)c1ccc(OP(C)(=O)Nc2ccc(SC(F)(F)F)cc2)cc1` (stereo not given), inactive: 3.8%.
On to `CP(=O)(Nc1ccccc1F)Oc1ccccc1` (stereo not given), for which the inhibition is inactive: 5.4%.
Under `CP(=O)(Nc1cccc(Br)c1)Oc1ccccc1` (stereo not given) stands inactive: -21.2%; under `Cc1cc(C)cc(OP(C)(=O)Nc2ccccn2)c1` (stereo not given), inactive: -6.1%.
To `Cc1ccc(C)c(NP(C)(=O)Oc2ccccc2)c1` (stereo not given) belongs inactive: 4.7%; to `Cc1cc(C)cc(OP(C)(=O)Nc2ccc(C)cc2C)c1` (stereo not given), inactive: -3.5%; to `CCOC(=O)c1ccc(NP(C)(=O)Oc2cc(C)cc(C)c2)cc1` (stereo not given), inactive: 1.1%.
To `COc1ccccc1OP(C)(=O)Nc1cccc(Br)c1` (stereo not given) belongs inactive: -5.8%; to `CC1=NCCc2c1[nH]c1ccccc21.O=[N+]([O-])c1cc([N+](=O)[O-])c(O)c([N+](=O)[O-])c1`, inactive: 23.2%; to `O=C(O)c1cccc(Nc2c([N+](=O)[O-])cc([N+](=O)[O-])cc2[N+](=O)[O-])c1`, inactive: -10%.
On to `CP(=O)(Nc1ccc(SC(F)(F)F)cc1)Oc1ccccc1` (stereo not given), for which the inhibition was inactive: 0.7%.
To `CCCOc1ccc(NP(C)(=O)Oc2ccc(Cl)cc2)cc1` (stereo not given) belongs inactive: -6%; to `COc1ccccc1OP(C)(=O)Nc1c(C)cccc1C` (stereo not given), inactive: 16.8%.
Take `CN1CCCCC1COC(=O)C1(O)c2ccccc2CCc2ccccc21` (stereo not given): the inhibition was inactive: -5.4%.
Regarding `O=[N+]([O-])c1cc([N+](=O)[O-])c(Nc2nnnn2CCO)c([N+](=O)[O-])c1`, the inhibition is inactive: 6%.
To `CCOC(=O)C(CC)C1=NC(C)(C)Cc2ccccc21.O=[N+]([O-])c1cc([N+](=O)[O-])c(O)c([N+](=O)[O-])c1` (stereo not given) belongs inactive: -1.3%.
Under `Cc1nc2ccc3ccccc3c2s1.O=[N+]([O-])c1cc([N+](=O)[O-])c(O)c([N+](=O)[O-])c1` stands inactive: -3.7%; under `O=[N+]([O-])c1cc([N+](=O)[O-])c(-n2nnc3ccccc32)c([N+](=O)[O-])c1`, inactive: 0.2%.
Under `CP(=O)(Nc1ccccn1)Oc1ccc(Cl)cc1` (stereo not given) stands inactive: 0.9%; under `CCOP(C)(=S)SCC(=O)NC(C)C(=O)O` (stereo not given), inactive: 7.3%; under `CCOC(=O)c1ccc(NP(C)(=O)Oc2ccc(OC)cc2)cc1` (stereo not given), inactive: -6.5%.
In the case of `CCc1ccc(OP(C)(=O)N2CCN(c3ccc([N+](=O)[O-])cc3)CC2)cc1` (stereo not given), the inhibition was inactive: -5.3%.
Under `CP(=O)(NC(=O)Nc1ccccc1)Oc1ccccc1` (stereo not given) stands inactive: -1.3%; under `Cc1cc(C)cc(OP(C)(=O)Nc2ccc(SC(F)(F)F)cc2)c1` (stereo not given), inactive: -2.9%; under `Cc1cccc(C)c1OP(C)(=O)Nc1ccc(SC(F)(F)F)cc1` (stereo not given), inactive: 3.5%.
To `CP(=O)(Nc1ccc(SC(F)(F)F)cc1)Oc1ccc(Cl)cc1` (stereo not given) belongs inactive: -8.1%; to `CP(=O)(Oc1ccccc1)OC(c1ccccc1)C(F)(F)F` (stereo not given), inactive: -18.1%; to `COc1ccccc1OP(C)(=O)Nc1ccccc1` (stereo not given), inactive: 12.4%.
Regarding `CP(=O)(Nc1ccccc1Br)Oc1ccccc1` (stereo not given), the inhibition was inactive: 1%.
`CP(=S)(Nn1cnnc1)Oc1ccccc1` (stereo not given): the inhibition is inactive: -0.9%.
To `COc1ccccc1OP(C)(=O)Nc1cc(Cl)ccc1C` (stereo not given) belongs inactive: -4.7%; to `COc1ccc(OP(C)(=O)Nc2cccc(F)c2)cc1` (stereo not given), inactive: 8.4%.
With `Cc1cc(C)cc(OP(C)(N)=O)c1` (stereo not given), the inhibition was inactive: -7%.
To `CCOC(=O)c1ccc(NP(C)(=O)Oc2ccccc2)cc1` (stereo not given) belongs inactive: 4.5%; to `COc1ccccc1OP(C)(=O)Nc1ccc(C)cc1` (stereo not given), inactive: -0.9%.
To `Cc1ccc(NP(C)(=O)Oc2ccccc2)c(C)c1` (stereo not given) belongs inactive: -0.6%; to `CC(C)(C)c1ccc(OP(C)(=O)Nc2ccc(SC(F)(F)F)cc2)cc1` (stereo not given), inactive: 41.9%.
To `Cc1cccc(C)c1OP(C)(N)=O` (stereo not given) belongs inactive: -1.6%.
As to `O=[N+]([O-])c1ccc2c(c1)C=Nc1ccccc1O2`, the inhibition was inactive: 15.7%.
Under `CCN(CC)CCCOC(=O)C(O)(c1ccccc1)c1ccccc1` stands inactive: -2.3%.

Values taken from PubChem BioAssay AID2073 (Sanford-Burnham Center for Chemical Genomics, 2009).
